These are literature values, as cited in patent publication US7390890B2, “Inhibitors of nucleoside metabolism” (Albert Einstein College of Medicine of Yeshiva University, priority 1997, dated 2008).

This data set concerns contact sensitivity ear swelling. The following applies: mice; cited from earlier work.

As to `Nc1nc2c(Cc3cccnc3)c[nH]c2c(=O)[nH]1` [9-(3-pyridylmethyl)-9-deazaguanine], the “oral dose required for activity in contact sensitivity ear swelling assay” value was 50 mg/kg.
